## Measured affinities in a library of Ab-95 light chain variants

From the AlphaSeq antibody data of Engelhart et al. 2022 (doi:10.1038/s41597-022-01779-4), copy in the FLAb collection.

Antigen: PDVDLGDISGINAS, a 14-residue peptide of the SARS-CoV-2 spike HR2 region.

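The parent was found by panning a naive human phage display library on the peptide. Variants in AAYL52 differ from the parent at up to three CDR positions; double and triple changes were sampled at random. The scFvs were displayed on barcoded MATa yeast, the peptide on MATalpha yeast. The frequency of each diploid, read from paired DNA barcodes, reflects how well the two displayed proteins bind. Each replicate has its own calibration line, from reference interactions of the BCL2 family. The assay was run in three technical replicates.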

Parent: Ab-95, a human scFv built as VH, a 15-residue (Gly4Ser)3 linker, VL. Only the CDRs of the light chain vary.
VH: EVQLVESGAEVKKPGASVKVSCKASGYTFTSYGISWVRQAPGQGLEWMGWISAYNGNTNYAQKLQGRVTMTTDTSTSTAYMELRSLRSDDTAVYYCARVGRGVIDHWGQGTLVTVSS
VL: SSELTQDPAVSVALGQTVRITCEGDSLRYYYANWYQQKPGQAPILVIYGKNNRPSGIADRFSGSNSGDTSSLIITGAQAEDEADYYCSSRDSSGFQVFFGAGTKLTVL

The parent's light chain CDRs are EGDSLRYYYAN, GKNNRPS, SSRDSSGFQVF; each variant's own CDRs replace them letter for letter. Every variant below is changed at N33 of the VL (sequential numbering). Affinities are written as log10 Kd with Kd in nM; a lower number is a better binder. The mean shown is taken over the replicates in which the pair was detected. Where no diploid with the target was found in that replicate, the entry reads "ND": below detection, most likely a poor binder, though not proof of it. For reference, the parent read 2.31 as the reference entry and 2.25 as a member of this library. Background: pairings of library AAYL52 with three empty control strains gave a value in 28% of cases (median 3.91, 5th percentile 2.90). Values in that range, when seen in few replicates, are hard to tell from nonspecific mating. The control count says in how many pairings with the empty strains this scFv gave a signal.

For NGDSMRYYYAR / GKNNRPS / SSRDSSGFQVF, the assay gave 5.69, 3.73, ND (mean 4.71; controls 1 of 9). For EGDSLRYYYAM / GKNNRPS / SPRDSSGFQVF, the assay gave 3.50, ND, ND (controls 0 of 9). For EGDSLRYYYAP / AKNNRPS / SSRDSSGFQDF, the assay gave 4.41, 3.88, ND (mean 4.15; controls 5 of 9). For ERDSLRFYYAV / GKNNRPS / SSRDSSGFQVF, the assay gave ND, ND, ND (controls 2 of 9). With EGDSLRYYYAE / GKVNRPS / SSSDSSGFQVF the result was 3.54, ND, ND (controls 1 of 9). For EGDSLRYYYAG / GKNNRPS / SSRDSSGFQVF, the assay gave 5.48, ND, 3.22 (mean 4.35; controls 4 of 9).

With EGDSLRYYYAA / GKNNNPS / SSRDSSGFQYF the result was 4.40, 5.12, 4.25 (mean 4.59; controls 2 of 9). For EGDCLRYYYAK / GKNNRPS / SERDSSGFQVF, the assay gave 4.31, ND, 4.48 (mean 4.40; controls 2 of 9). Variant EGDSLRDYYAY / GKNNRPS / SSRHSSGFQVF gave ND, ND, 3.86 (controls 4 of 9). Variant EGDSLRYYYAK / GKTNRPS / SSRDSSGFQVF gave ND, 2.50, ND (controls 3 of 9). Variant EGDSLRYYYAV / GKNNRPS / SSRDSSAFQGF showed ND, ND, ND (controls 2 of 9). Variant EGDSCRYYYAF / GKNARPS / SSRDSSGFQVF gave 5.26, ND, ND (controls 0 of 9).

For EGDSLRFYYAS / GKNNRPS / SSRDSSGFQIF, the assay gave 3.16, ND, 4.25 (mean 3.71; controls 3 of 9). Variant EGDSLRYYYAC / GKNNYPS / SSRDTSGFQVF showed ND, ND, ND (controls 1 of 9). Variant EGDSLRYYYAW / GKNNRPS / SSTDDSGFQVF showed 5.62, ND, ND (controls 3 of 9). For EGDSLRYYYAM / GKMNRPS / SDRDSSGFQVF, the assay gave ND, ND, ND (controls 3 of 9). Variant EGDPLRYYKAC / GKNNRPS / SSRDSSGFQVF showed 3.50, 4.43, 3.66 (mean 3.86; controls 5 of 9). With EGDSLRMYYAC / GKNNRPS / SSRDGSGFQVF the result was 5.36, 3.84, 2.96 (mean 4.05; controls 4 of 9).

For EGDSDRYYYAI / GKNNRPS / SSRDSSGFQCF, the assay gave 4.77, 3.78, 3.78 (mean 4.11; controls 3 of 9). With HGDSLRYYFAP / GKNNRPS / SSRDSSGFQVF the result was ND, ND, ND (controls 2 of 9). Variant EGDSLRIYYAY / GKNNRPS / VSRDSSGFQVF showed ND, ND, ND (controls 2 of 9). With EGDSLRYYYAR / GKNNRPS / SSRKSWGFQVF the result was ND, 3.94, ND (controls 3 of 9). With EGDSYRYYYAD / DKNNRPS / SSRDSSGFQVF the result was 2.76, 4.90, ND (mean 3.83; controls 2 of 9). For EGDSLRYYYAH / GKNNRPG / SKRDSSGFQVF, the assay gave ND, ND, ND (controls 3 of 9).

For EGDSLRYYYAV / GKNNRPS / SSRDSSGFNVF, the assay gave 4.23, 4.88, ND (mean 4.55; controls 4 of 9). Variant EGDSLHYYYAQ / GKNNRPS / SSRDSSGFQVF showed 3.75, 4.34, ND (mean 4.04; controls 2 of 9). For EGSSLRRYYAH / GKNNRPS / SSRDSSGFQVF, the assay gave ND, ND, ND (controls 5 of 9). Variant EGECLRYYYAA / GKNNRPS / SSRDSSGFQVF showed ND, 3.90, 4.52 (mean 4.21; controls 0 of 9). With EGDSLRYYYAA / GKNNRLS / SSRDSSGFQVF the result was 4.33, ND, ND (controls 3 of 9). Variant EGDSSPYYYAI / GKNNRPS / SSRDSSGFQVF showed ND, 3.61, ND (controls 0 of 9).

For EGDSMRYYYAP / GKNNRPS / SSRDKSGFQVF, the assay gave 1.75, 1.75, 1.71 (mean 1.74; controls 0 of 9). Variant EGDSLRYYYAH / GKHNRPE / SSRDSSGFQVF showed ND, 4.55, ND (controls 1 of 9). Variant EGDSLRYYYAA / GQNNRPS / SSRDSSGHQVF gave 4.95, ND, 4.23 (mean 4.59; controls 4 of 9). Variant EGDSLRYYYAV / GKNQRPS / SSYDSSGFQVF gave 4.20, ND, 4.19 (mean 4.20; controls 2 of 9). Variant EGDSLRYEYAR / GKNNRPS / SSRDSSGFSVF showed 0.98, 1.00, 0.29 (mean 0.75; controls 5 of 9). Variant EGDSLAYYYGH / GKNNRPS / SSRDSSGFQVF gave 4.08, 3.79, 3.27 (mean 3.71; controls 4 of 9).

For EYDSLRYYYAV / GKQNRPS / SSRDSSGFQVF, the assay gave ND, 5.17, ND (controls 0 of 9). For EGDSLRYAYAG / GKNNRPS / SSRDSHGFQVF, the assay gave 4.50, 5.75, ND (mean 5.13; controls 4 of 9). With EGDSLRCYYAY / GKNNRPS / SSRDSVGFQVF the result was 4.54, 5.97, 3.93 (mean 4.81; controls 3 of 9). Variant WGDSLRYYYAA / GKNNRPS / SSRDSSGTQVF gave ND, ND, ND (controls 3 of 9). For EGDSLRYYYAA / GDNNRPS / SSRDSSGFQVE, the assay gave 3.39, ND, ND (controls 3 of 9). Variant EGDSLRRYYAI / GKNNRPL / SSRDSSGFQVF showed 2.04, 1.67, 1.97 (mean 1.89; controls 4 of 9).

Variant EGDSLRYYYAR / GKNNRPS / SSRDMKGFQVF showed ND, ND, ND (controls 0 of 9). With EGDSLRYYYKY / GKNNRPS / SSRDSSGFQVF the result was 4.09, ND, 4.10 (mean 4.09; controls 3 of 9). Variant EGDCLRMYYAY / GKNNRPS / SSRDSSGFQVF showed 4.22, 4.19, ND (mean 4.21; controls 3 of 9).

Picked from the list: the 7 lowest averages where every replicate gave a value.

CDR-L1	CDR-L2	CDR-L3	log10 Kd (nM) by replicate	log10 Kd (nM), mean	signal with controls
EGDSLRYEYAR	GKNNRPS	SSRDSSGFSVF	0.98, 1.00, 0.29	0.75	5 of 9
EGDSMRYYYAP	GKNNRPS	SSRDKSGFQVF	1.75, 1.75, 1.71	1.74	0 of 9
EGDSLRRYYAI	GKNNRPL	SSRDSSGFQVF	2.04, 1.67, 1.97	1.89	4 of 9
EGDSLAYYYGH	GKNNRPS	SSRDSSGFQVF	4.08, 3.79, 3.27	3.71	4 of 9
EGDPLRYYKAC	GKNNRPS	SSRDSSGFQVF	3.50, 4.43, 3.66	3.86	5 of 9
EGDSLRMYYAC	GKNNRPS	SSRDGSGFQVF	5.36, 3.84, 2.96	4.05	4 of 9
EGDSDRYYYAI	GKNNRPS	SSRDSSGFQCF	4.77, 3.78, 3.78	4.11	3 of 9